Legend:
[1] = molecular target: T1, Relaxin receptor 1 (Mus musculus) (UniProt Q6R6I7); test: Agonist activity at mouse RXFP1 receptor expressed in HEK293 cells assessed as stimulation of cAMP production at 66 uM incubated for 30 mins by TR-FRET based HTRF assay relative to relaxin; format: functional, cell-based; set-up: scale not given: the % may be the effect or the level left
T1 sequence (whole entry): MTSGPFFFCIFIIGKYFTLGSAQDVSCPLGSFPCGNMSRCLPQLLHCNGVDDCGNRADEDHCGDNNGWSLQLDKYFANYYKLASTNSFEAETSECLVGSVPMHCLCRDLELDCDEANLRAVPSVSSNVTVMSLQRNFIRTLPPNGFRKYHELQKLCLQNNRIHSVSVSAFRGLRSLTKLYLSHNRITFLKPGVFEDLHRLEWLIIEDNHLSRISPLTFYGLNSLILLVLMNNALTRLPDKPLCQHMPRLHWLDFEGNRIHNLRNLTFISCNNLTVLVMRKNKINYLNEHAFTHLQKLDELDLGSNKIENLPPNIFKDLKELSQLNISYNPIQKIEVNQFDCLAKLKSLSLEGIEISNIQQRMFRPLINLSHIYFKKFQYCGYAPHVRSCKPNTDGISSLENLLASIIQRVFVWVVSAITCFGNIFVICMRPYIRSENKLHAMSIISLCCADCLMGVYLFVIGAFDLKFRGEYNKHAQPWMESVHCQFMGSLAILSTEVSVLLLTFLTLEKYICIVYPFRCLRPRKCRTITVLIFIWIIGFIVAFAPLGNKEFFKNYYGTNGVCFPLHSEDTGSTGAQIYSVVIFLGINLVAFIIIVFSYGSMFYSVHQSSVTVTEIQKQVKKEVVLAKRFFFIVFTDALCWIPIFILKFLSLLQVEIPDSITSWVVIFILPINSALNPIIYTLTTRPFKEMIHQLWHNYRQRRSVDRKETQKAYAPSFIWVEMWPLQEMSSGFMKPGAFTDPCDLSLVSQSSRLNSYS

[2] = molecular target: T1, Relaxin receptor 1 (Mus musculus); test: Agonist activity at mouse RXFP1 receptor M10 Ile646Val and Leu647Val mutant expressed in HEK293 cells assessed as stimulation of cAMP production at 66 uM incubated for 30 mins by TR-FRET based HTRF assay relative to relaxin; format: functional, cell-based; set-up: scale not given: the % may be the effect or the level left

CC(C)Oc1ccccc1C(=O)Nc1ccccc1C(=O)Nc1cccc(S(=O)(=O)C(F)(F)F)c1
Activity [1]: 0% | Activity [2]: 0%
